Data: patent US4950647A, “T cell immunopotentiator” (Nucleic Acid Research Institute, priority 1988, dated 1990)

Experiments:
[1] = tested on: cytotoxic T cells; conditions: some AIDS patients and patients with AIDS related complex; cited from earlier work
[2] = tested on: human lymphocytes (peripheral blood mononuclear cells); test: Phytohemagglutinin (PHA) induced lymphocyte proliferation; assay type: cell-based
Method: (§1) Peripheral blood mononuclear cells were isolated from heparinized peripheral blood of normal healthy donors as described in Sharma, B. and S. Gupta, "Antigen-specific primary cytotoxic T lymphocyte response in acquired immune deficiency syndrome (AIDS) and AIDS related complex", Clin. Exp. Immunol., 62:296, 1985. Briefly, blood was diluted 1:1 with Hanks balanced salt solution (HBSS). Peripheral blood mononuclear cells were separated on a Ficoll-Hypaque gradient. The peripheral blood mononuclear cells recovered from the interface were washed three times with HBSS and resuspended in RPMI-1640 containing 100 U/ml penicillin, 100 μg/ml streptomycin 2mM L-glutamine (GIBCO, Grand Island, N.Y.), and 10% heat-inactivated pooled A serum (Irvine Scientific, Irvine, Calif.), hereafter referred as complete medium (CM).
The ability of the compound 6-amino-(2-deoxy-α-D-erythropentofuranosyl)-imidazo[4,5,-C]pyridin-4-one to modulate lymphocyte response to plant mitogens was determined by the modified procedure of Sharma, B., O. Kohashi, M. R. Mickey, and P. T. Terasaki, "Effect of water soluble adjuvants on in vitro lymphocyte immunization", Cancer Res. 35:666, 1975. Peripheral blood mononuclear cells were cultured for 72-96 hr with phytohemagglutinin (Difco, Detroit, Mich.), Concanavalin A (Calbiochem, Calif.) or Pokeweed mitogen (GIBCO, Grand Island, N.Y.) in the presence and absence of 6-amino-(2-deoxy-α-D-erythro-pentofuranosyl)-imidazo[4,5,-C]pyridin- 4-one. The culture were set up in quadruplicate and pulsed with [^3 H]-thymidine for 16 hr and the [^3 H] thymidine incorporation was determined.
Lymphocytes from different donors where incubated with various concentration of phytohemagglutinin in absence and presence of 6-amino-(2-deoxy-α-D-erythro-pentofuranoxyl)imidazo-[4,5,-C]pyridin- 4-one.
[…] Lymphocyte proliferation was determined by ^3 H-thymidine incorporation.

[3] = tested on: human mixed lymphocyte culture; test: Mixed lymphocyte response / culture (alloantigens); assay type: cell-based; conditions: A + B
Method: as §1
Peripheral blood mononuclear cells (1×10^5 /0.2 ml/well) from donor-A were cultured together with different numbers of peripheral blood mononuclear cells ([…]) of peripheral blood mononuclear cells from the other donor for 96 hr as previously described above for the lymphocyte response to plant mitogens. Cultures were pulsed with [^3 H]-thymidinefor additional 16 hrs.
The maximal increase of 91% is seen in those experiments where allogeneic peripheral blood mononuclear cells.

[4] = A + PHA (0.125 μg), rIL-2 5 units
[5] = A + PHA (0.125 μg), rIL-2 10 units

Substance | restoration of depressed cytotoxic T cell function [1] | 3H-thymidine incorporation [2, 4] | % Potentiation [2, 4] | 3H-thymidine incorporation [2, 5] | % Potentiation [2, 5] | 3H-thymidine incorporation ([2]; A + PHA (1 μg), rIL-2 2 units) | % Potentiation ([2]; A + PHA (1 μg), rIL-2 2 units) | 3H-thymidine incorporation ([2]; A + PHA (1 μg), rIL-2 10 units) | % Potentiation ([2]; A + PHA (1 μg), rIL-2 10 units) | 3H-thymidine incorporation ([3]; rIL-2 2 units) | % Potentiation ([3]; rIL-2 2 units) | 3H-thymidine incorporation ([3]; rIL-2 5 units) | % Potentiation ([3]; rIL-2 5 units) | 3H-thymidine incorporation ([3]; rIL-2 (1O) units) | % Potentiation ([3]; rIL-2 (1O) units)
interleukin-2: interleukin-2 (literature) | could restore depressed cytotoxic T cell function |  |  |  |  |  |  |  |  |  |  |  |  |  | 
rIL-2: Recombinant Interleukin-2 (rIL-2) |  | 95,849 ± 9225 CPM | 645% | 87,707 ± 3989 CPM | 582% | 109,587 ± 9210 CPM | 23% | 124,464 ± 9761 CPM | 45% | 19,413 ± 2623 CPM | 46% | 22,451 ± 2979 CPM | 68% | 26,690 ± 1962 CPM | 100%
